From patent US9963456B2, “Pyrrolopyrimidine compound or salt thereof and compositions containing the pyrrolopyrimidine compound or salt thereof” (TAIHO PHARMACEUTICAL CO., LTD., priority 2014, dated 2018) come the findings set out here.

One data set has as its target carbonic anhydrase II (Homo sapiens (Human), UniProt P00918). The data set can be described thus: Carbonic anhydrase II enzyme activity inhibition (4-NPA esterase activity). It is filed as biochemical. Conditions: 4-nitrophenyl acetate esterase activity, absorbance at 405 nm.
Data set [1] deals with Human colon cancer HCT-116 cell lines. As to the kind of experiment: Antitumor effect on tumor cells transplanted into mice 2. It is filed as in vivo. An excerpt: Human colon cancer HCT-116 cell lines were washed in PBS and suspended at a concentration of 4×10^7 cells/mL.
TV(mm3)=(length×width^2)/2, wherein the unit of length and width is mm (equation D).
When the TV reached 100 to 300 mm3, the animals were assigned to each group in accordance with a stratified randomization procedure. The day was considered day 1, the TV on the day was considered TV1, and the body weight on the day was considered BW1.
A required amount of the test compound was weighed to prepare an administration solution.

The IC50 is the concentration that inhibits the measured activity by half. A high value points to lower potency. Molecule `Nc1ncnc2c1c(C#Cc1ccccc1)cn2[C@H]1C[C@H](O)[C@@H](COS(N)(=O)=O)O1` [Example 134, [(2R,3S,5R)-5-[4-Amino-5-(2-phenylethynyl)pyrrolo[2,3-d]pyrimidin-7-yl]-3-hydroxy-tetrahydrofuran-2-yl]methyl sulfamate] had an IC50 against carbonic anhydrase II above 1 µM.
On the same count and under the same terms, for `Nc1ncnc2c1c(C#Cc1ncccc1F)cn2[C@@H]1O[C@H](CNS(N)(=O)=O)[C@@H](O)[C@H]1O` [Example 88, 4-Amino-7-[(2R,3R,4S,5R)-3,4-dihydroxy-5-[(sulfamoylamino)methyl]tetrahydrofuran-2-yl]-5-[2-(3-fluoro-2-pyridyl)ethynyl]pyrrolo[2,3-d]pyrimidine] the value was above 1 µM; for `CSc1cccc(F)c1C#Cc1cn([C@@H]2C[C@H](CNS(N)(=O)=O)[C@@H](O)[C@H]2O)c2ncnc(N)c12` [Example 98, 4-Amino-7-[(1R,2S,3R,4R)-2,3-dihydroxy-4-[(sulfamoylamino)methyl]cyclopentyl]-5-[2-(2-fluoro-6-methylsulfanyl-phenyl)ethynyl]pyrrolo[2,3-d]pyrimidine], above 1 µM.
`CCOc1cccc(F)c1C#Cc1cn([C@@H]2O[C@H](CNS(N)(=O)=O)[C@@H](O)[C@H]2O)c2ncnc(N)c12` [Example 55, 4-Amino-7-[(2R,3R,4S,5R)-3,4-dihydroxy-5-[(sulfamoylamino)methyl]tetrahydrofuran-2-yl]-5-[2-(2-ethoxy-6-fluoro-phenyl)ethynyl]pyrrolo[2,3-d]pyrimidine] came in with a half-inhibitory concentration (IC50) at carbonic anhydrase II above 1 µM. Also, in data set [1] (HCT-116 xenograft in mice, 50 mg/kg/day intravenous, administration days 1, 4, 8, 11, day 15), the T/C15 was 26%. In data set [1] (HCT-116 xenograft mice), the “change of the body weight compared with the control” value is listed as “within an acceptable degree”. Also, the “RTV comparison with the Comparative Example” value in data set [1] (HCT-116 xenograft, hydrochloride compound of Example 55, Aspin-Welch's t-test) was “significantly lower than that of the Comparative Example”. In addition, the “RTV15 comparison with the control” value in data set [1] (HCT-116 xenograft, hydrochloride compound of Example 55, Dunnett's test) is reported as “significantly lower than that of the control”. The “BWC15 Mean ± SD” value in data set [1] (body weight change rate, HCT-116 xenograft in mice, 50 mg/kg/day intravenous, days 1, 4, 8, 11, day 15) is listed as −11.0 ± 9.6%.
Take `Nc1ncnc2c1c(C#Cc1c(F)cccc1F)cn2[C@@H]1O[C@H](CNS(N)(=O)=O)[C@@H](O)[C@H]1O` [Example 1, 4-Amino-5-[2-(2,6-difluorophenyl)ethynyl]-7-[(2R,3R,4S,5R)-3,4-dihydroxy-5-[(sulfamoylamino)methyl]tetrahydrofuran-2-yl]pyrrolo[2,3-d]pyrimidine]: the IC50 at carbonic anhydrase II was above 1 µM.
At carbonic anhydrase II, `CCOc1cc(F)cc(F)c1C#Cc1cn([C@@H]2O[C@H](CNS(N)(=O)=O)[C@@H](O)[C@H]2O)c2ncnc(N)c12` [Example 35, 4-Amino-7-[(2R,3R,4S,5R)-3,4-dihydroxy-5-[(sulfamoylamino)methyl]tetrahydrofuran-2-yl]-5-[2-(2-ethoxy-4,6-difluoro-phenyl)ethynyl]pyrrolo[2,3-d]pyrimidine] yielded an IC50 above 1 µM.
The same measure, in the same setting: the value for `N#Cc1ccccc1C#Cc1cn([C@@H]2O[C@H](CNS(N)(=O)=O)[C@@H](O)[C@H]2O)c2ncnc(N)c12` [Example 49, 4-Amino-5-[2-(2-cyanophenyl)ethynyl]-7-[(2R,3R,4S,5R)-3,4-dihydroxy-5-[(sulfamoylamino)methyl]tetrahydrofuran-2-yl]pyrrolo[2,3-d]pyrimidine] was above 1 µM; that for `Nc1ncnc2c1c(C#Cc1c(F)cccc1OCC1CC1)cn2[C@@H]1O[C@H](CNS(N)(=O)=O)[C@@H](O)[C@H]1O` [Example 86, 4-Amino-5-[2-[2-(cyclopropylmethoxy)-6-fluoro-phenyl]ethynyl]-7-[(2R,3R,4S,5R)-3,4-dihydroxy-5-[(sulfamoylamino)methyl]tetrahydrofuran-2-yl]pyrrolo[2,3-d]pyrimidine] was above 1 µM; that for `CSc1cccc(F)c1C#Cc1cn([C@@H]2C=C(CNS(N)(=O)=O)[C@@H](O)[C@H]2O)c2ncnc(N)c12` [Example 130, 4-Amino-7-[(1R,4R,5S)-4,5-dihydroxy-3-[(sulfamoylamino)methyl]cyclopent-2-en-1-yl]-5-[2-(2-fluoro-6-methylsulfanyl-phenyl)ethynyl]pyrrolo[2,3-d]pyrimidine] was above 1 µM.
